Reference: ChEMBL document CHEMBL6103567, “A novel pyridine-2-one AMPK inhibitor: Discovery, mechanism, and in vivo evaluation in a hypoxic pulmonary arterial hypertension rat model” (Eur J Med Chem, 2025)
Calls of active or inactive are those of the source.

How the values were obtained:
Rattus norvegicus [1] = assay: Antifibrotic activity against hypoxia-induced Pulmonary Arterial Hypertension Sprague-Dawley rat model assessed as change in smad3 level in lung at 30 mg/kg, po; format: functional, organism-based
Rattus norvegicus [2] = assay: Antifibrotic activity against hypoxia-induced Pulmonary Arterial Hypertension Sprague-Dawley rat model assessed as change in collagen-1 level in lung at 30 mg/kg, po; format: functional, organism-based
PASMC [3] = assay: Inhibition of autophagy in human PASMC cells assessed as increase in LC3B-II/I level at 5 uM incubated for 24 hrs under hypoxic condition by Western blotting analysis; format: functional, cell-based
Rattus norvegicus [4] = assay: Antifibrotic activity against hypoxia-induced Pulmonary Arterial Hypertension Sprague-Dawley rat model assessed as change in alpha-SMA level in lung at 30 mg/kg, po; format: functional, organism-based
PASMC [5] = assay: Inhibition of autophagy in human PASMC cells assessed as increase in p62 level at 5 uM incubated for 24 hrs under hypoxic condition by Western blotting analysis; format: functional, cell-based
Rattus norvegicus [6] = assay: Antifibrotic activity against hypoxia-induced Pulmonary Arterial Hypertension Sprague-Dawley rat model assessed as change in fibronectin-1 level in lung at 30 mg/kg, po; format: functional, organism-based
PASMC [7] = assay: Inhibition of autophagy in human PASMC cells at 5 uM incubated for 12 hrs under hypoxic condition by MDC staining based fluorescence microscopic assay; format: functional, cell-based

c1cc(-c2cnn3cc(-c4ccc(OCCN5CCCCC5)cc4)cnc23)ccn1 [DORSOMORPHIN]
active: Activity (Rattus norvegicus [1]) | Activity (Rattus norvegicus [2]) | inhibition (PASMC [3]) | Activity (Rattus norvegicus [4]) | inhibition (PASMC [5]) | Activity (Rattus norvegicus [6]) | inhibition (PASMC [7])
